Laboratory results: patent US9796673B2, “L-tartrate salt of pridopidine” (TEVA PHARMACEUTICALS INTERNATIONAL GMBH, priority 2014, dated 2017)

What was measured:
[1] = Dynamic vapor sorption (DVS) hygroscopicity; assay type: physicochemical; conditions: for Hygroscopicity 40% RH: Table 3, 40% RH; for Hygroscopicity 75% RH: Table 3, 75% RH; for Hygroscopicity 90% RH: Table 3, 90% RH
Protocol: DVS—Measurement of Dynamic Vapor Sorption: DVS experiments have been carried out using the DVS-HT instrument (Surface Measurement Systems, London, UK). This instrument measures the uptake and loss of vapor gravimetrically using a recording ultra-microbalance with a mass resolution of ±0.1 μg. The vapor partial pressure (±1.0%) around the sample is controlled by mixing saturated and dry carrier gas streams using electronic mass flow controllers. The desired temperature is maintained at ±0.1° C. […] The sample was loaded and unloaded at 40% RH and 25° C. (typical room conditions). A moisture sorption isotherm was performed as outlined below (2 scans giving 1 complete cycle). The software uses a least squares minimization procedure together with a model of the mass relaxation, to predict an asymptotic value. The measured mass equilibration value must be within 2% of that predicted by the software before proceeding to the next % RH value. The minimum equilibration time was set to 1 hour and the maximum to 4 hours.

[2] = pH column of water solubility table (Table 2)
[3] = 4 week, 40° C. and 75% RH

Deliquescence during the DVS test [1] | Hygroscopicity in words [1] | DVS weight gain ([1]; 40% RH) | DVS weight gain ([1]; 70% RH) | DVS weight gain ([1]; 90% RH) | Hygroscopicity 40% RH [1] | Hygroscopicity 75% RH [1] | Hygroscopicity 90% RH [1] | XRPD pattern before and after the DVS test [1] | relative humidity up to which substantially non-hygroscopic [1] | total uptake in moisture (DVS) ([1]; entire RH range, larger-scale batch) | pH [2] | chemical and physical stability [3] | takes up water ([1]; 0% RH) | Substance
deliquesced | very hygroscopic | 1% | 15% | 36% | 0.01% | 12% | 36% | – | – | – | – | – | – | pridopidine succinate
– | – | 0.02% | 0.73% | 1.98% | 0.02% | 0.7% | 2.0% | no change in XRPD pattern | at least 90% | ~2.3% | 3.3 | acceptable | – | pridopidine L-tartrate
– | – | – | 1.0% | 1.7% | 0.4% | 1.0% | 1.7% | – | – | – | – | – | 0.4% | pridopidine oxalate
